Assay results: patent publication US11390664B2, “Antibodies that potently neutralize hepatitis B virus and uses thereof” (priority 2015, dated 2022)

Tested on: HBV (genotype D)
Test: Combination therapy in chronically HBV infected humanized uPA/SCID mice
Type: in vivo
Conditions: 4 weeks treatment from week 8 post-infection; HBC34 1 mg/kg i.p. twice per week; lamivudine 0.4 mg/ml in drinking water

## Nc1ccn([C@@H]2CS[C@H](CO)O2)c(=O)n1 [lamivudine, reference compound]
  HBsAg drop (reduction): 0.2 log
  mean reduction of viremia: 1.3 log
